Compounds with a hit are over-represented: about 1.6% of the library has one in this group of screens.
CAL PDZ FP-1: inhibitors of human CAL PDZ peptide binding; Q9HD26; inhibition, % at 24.9 µM; 300,000 tested, 0.92% active; AID 602252; purified CAL PDZ, TMR-peptide fluorescence polarization, 1 h;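 active means mean inhibition of at least 30% with at least half of replicates also reaching 30%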;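 further: 0% = DMSO neutral control and 100% = excess unlabeled competitor peptide PRC23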
CAL PDZ FP-2: blocks peptide binding to human CAL PDZ domain; Q9HD26; purified CAL PDZ, TMR-peptide fluorescence polarization, 1 h; inhibition, % at 20 µM; 330,000 tested, 0.02% active;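 active means highest replicate inhibition of at least 40%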;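 further: plate controls were DMSO neutral control wells for no effect and unlabeled competitor peptide control wells for full effect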
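Test system: tagged CAL PDZ domain / Buffer or medium: sodium phosphate/NaCl buffer pH 7.4 with TCEP, IgG, Thesit / Reagent: TMR-labelled reporter peptide T*-PRC34 bound in PDZ groove / Compound dosing: single point, 20 µM / Schedule: 1 h incubation at room temperature before polarization reading / Technique: fluorescence polarization (mP) / Benchmarks: unlabelled peptide, DMSO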
Vif imaging: blocks HIV Vif function; HEK293T cells, Vif self-association by quenched fluorescence, imaging, 24 h; inhibition, % at 7.49 µM; 340,000 tested, 0.35% active; AID 602346; in the data active means inhibition above about 50%, passing the limit was not always enough
PglD inh: blocks C. jejuni PglD acetyltransferase activity; purified PglD enzyme, DTNB colorimetric CoA detection; inhibition, % at 12.5 µM; 360,000 tested, 0.098% active; AID 602405; in the data active means inhibition above about 16%, passing the limit was not always enough
ARNT-TACC3 inh: disrupts binding between human ARNT and TACC3 | Q9Y6A5 | AlphaScreen His-ARNT PAS-B/GST-TACC3 binding, luminescence; TACC3 fragment carries E629A point mutation | inhibition, % at 9.99 µM | 390,000 tested, 0.66% active | AID 623870;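 active means mean inhibition of replicates at least 50% and at least half of replicates each reaching 50%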;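 further: 0% = complete ARNT plus TACC3 wells and 100% = ARNT alone without TACC3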
Yeast UUG start: modulators of yeast start codon fidelity, primary screen, whole organism, S. cerevisiae, single point, plate reader | AID 602363, 2012 | actives 0.13% (n = 350,000) | activity score, % at 18.7 µM | S. cerevisiae UUG-firefly luciferase reporter, luminescence/redox ratio;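 active means replicate mean at a twofold rise or more, about +100% in these data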;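 further: firefly luciferase made from a UUG start codon reports start codon fidelity; reporter light over untreated wells divided by growth signal over untreated wells; some hits fall short of that in this replicate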
* marks the source's active call; other numbers are inactive results; / = not tested or not shown.

no.	Compound	CAL PDZ FP-1	CAL PDZ FP-2	Vif imaging	PglD inh	ARNT-TACC3 inh	Yeast UUG start
1	O=C(N[C@H]1CC[C@@H](CCn2cc(C3(O)CCCC3)nn2)O[C@H]1CO)C1CCCCC1	/	/	/	-2	-7	-4
2	COc1ccc(C2NC(=S)NC3=C2CCCC3=C2SCCS2)cc1 (stereo not drawn)	-3	-2	56*	6	-5	-10
3	CN1CCN(CCCN(Cc2cccs2)C(=S)Nc2ccc(Cl)cc2)CC1	7	-2	-1	/	8	/
4	COc1ccc(NC(=S)N(CCCN2CCN(C)CC2)Cc2cccs2)cc1	/	0	6	3	85*	-25
5	C[C@H]1CN([C@@H](C)CO)C(=O)Cc2cc(NS(C)(=O)=O)ccc2O[C@@H]1CN(C)S(C)(=O)=O	/	/	/	1	0	-10
6	C[C@H](NC(=O)c1ccco1)C(=O)Nc1nc(-c2ccccn2)cs1	-6	0	-2	/	68*	/
7	COc1ccc(OC)c(S(=O)(=O)NCCS(=O)(=O)N2CCN(c3ccccc3)CC2)c1	35*	-1	11	-1	4	6
8	COc1ccccc1OCC(=O)NCCS(=O)(=O)N1CCN(c2ccc(F)cc2)CC1	54*	0	-5	3	1	15
9	N#CC1(c2ccccc2)CCC(=O)N1c1ccccc1 (stereo not drawn)	-8	0	1	/	-13	/
10	COc1ccccc1N1C(=O)CCC1(C#N)c1ccccc1 (stereo not drawn)	-4	0	69*	3	-11	-6
11	C[C@@H]1CCCCO[C@H](CN(C)C)[C@H](C)CN([C@@H](C)CO)C(=O)c2cc(NC(=O)CCC(F)(F)F)ccc2O1	/	/	/	2	-7	7
12	COCCCNC(=O)C1CC(=O)OC1c1ccc(OC)c(OC)c1 (stereo not drawn)	42*	1	-10	/	0	/

Numbers 1 through 3, quoted:
no.	Compound	CAL PDZ FP-1	CAL PDZ FP-2	Vif imaging	PglD inh	ARNT-TACC3 inh	Yeast UUG start
1	O=C(N[C@H]1CC[C@@H](CCn2cc(C3(O)CCCC3)nn2)O[C@H]1CO)C1CCCCC1	/	/	/	-2	-7	-4
2	COc1ccc(C2NC(=S)NC3=C2CCCC3=C2SCCS2)cc1 (stereo not drawn)	-3	-2	56*	6	-5	-10
3	CN1CCN(CCCN(Cc2cccs2)C(=S)Nc2ccc(Cl)cc2)CC1	7	-2	-1	/	8	/

The list goes on.
no.	Compound	CAL PDZ FP-1	CAL PDZ FP-2	Vif imaging	PglD inh	ARNT-TACC3 inh	Yeast UUG start
13	CN(Cc1ccccc1Cl)C(=O)C1CCC(=O)N(C2CCCCCC2)C1 (stereo not drawn)	0	-3	-3	-2	44	-2
14	Cc1ccc(CN(C)C(=O)C2CCC(=O)N(C3CCCCCC3)C2)cc1 (stereo not drawn)	39*	0	7	0	-4	-19
15	COc1cccc(CNC(=O)C[C@@H]2C=C[C@@H](NS(=O)(=O)c3ccccc3OC)[C@@H](CO)O2)c1	/	/	/	-5	4	-7
16	C[C@H]1CN([C@@H](C)CO)C(=O)CCCn2cc(nn2)CO[C@H]1CN(C)Cc1ccncc1	/	/	/	1	-1	/
17	COc1ccc2cc(C#N)c(SCC(=O)N3CC(=O)Nc4ccccc43)nc2c1	-2	-2	8	3	-3	-17
18	Cc1cccc(-n2ncc3c(=O)[nH]c(SCC(=O)N4CC(=O)Nc5ccccc54)nc32)c1	37*	0	18	-5	-3	-17
19	Cc1cccc2cc(C#N)c(SCC(=O)N3CC(=O)Nc4ccccc43)nc12	/	-2	61*	-2	3	-20
20	C[C@H](CO)N1C[C@H](C)[C@@H](CN(C)S(=O)(=O)c2cn(C)cn2)Oc2ccc(NC(=O)CCC(F)(F)F)cc2CC1=O	/	/	/	0	8	78
21	CNC(=O)C[C@H]1CC[C@H]2[C@H](COc3ccc(NC(=O)Nc4cc(C)cc(C)c4)cc3C(=O)N2C)O1	/	/	/	-1	-2	-8
22	CC(=O)c1cccc(NC(=O)C(C)OC(=O)CCn2c(C)csc2=O)c1 (stereo not drawn)	62*	0	0	-1	/	22
23	Cc1csc(=O)n1CCC(=O)OC(C)C(=O)Nc1ccc(N2CCOCC2)cc1 (stereo not drawn)	6	0	-5	1	0	-3
24	C[C@@H]1CN([C@H](C)CO)C(=O)c2cccc(NC(=O)c3cnccn3)c2O[C@H]1CN(C)C(=O)Nc1cccc2ccccc12	/	/	/	2	-1	0

(listing goes on)
No.	Compound	CAL PDZ FP-1	CAL PDZ FP-2	Vif imaging	PglD inh	ARNT-TACC3 inh	Yeast UUG start
25	S=C(N/N=C/c1ccc(Br)cc1)N1CCCCC1	-2	1	-3	1	38*	-35
26	S=C(Nc1ccc(Cl)cc1Cl)N1CCOCC1	-2	0	3	/	-3	/
27	CSC(=S)N/N=C/c1ccc(Br)cc1	4	0	-3	/	2	/
28	S=C(N/N=C/c1ccc(Cl)cc1)N1CCOCC1	-1	-2	-4	/	61*	/
29	COCC(=O)Nc1ccc2c(c1)OC[C@H](C)N(Cc1cccnc1)C[C@@H](C)[C@@H](OC)CN(C)C2=O	/	/	/	1	-3	/

Source: PubChem BioAssay
